Values quoted from earlier work in patent US20040132648A1, “Remedies and/or preventives for conformational diseases” (priority 2001, published 2004).

Test system: peptidase
Details: specified in Peptide Chemistry (1996) 249-252; cited from earlier work

Substance	resistance against peptidase in vivo
Arg-PACAP38	extremely strong resistance
Arg-PACAP27	extremely strong resistance
